Calls of active or inactive are those of the source. No cut-off for these calls is given here.
How the values were obtained:
[1] = target: Vasopressin V1a receptor (Rattus norvegicus) (UniProt P30560); assay: Inhibition dose for AVP (30 milliunits/kg, iv) induced vasoconstriction when orally administarted; assay type: functional, organism-based
[2] = target: Vasopressin V1a receptor (Rattus norvegicus) (UniProt P30560); settings: Artery; 20 uM
[3] = target: Vasopressin V1a receptor (Rattus norvegicus) (UniProt P30560); settings: Artery; 19 uM
[4] = target: Vasopressin V1a receptor (Rattus norvegicus) (UniProt P30560); assay: Inhibition expressed as percent change in diastolic blood pressure increased by AVP (30 milliunits / kg, iv) before and after oral administration at 21 uM/kg; assay type: functional, organism-based; settings: Artery
[5] = target: Vasopressin V1a receptor (Rattus norvegicus) (UniProt P30560); settings: Artery; 22 uM
[6] = target: Vasopressin V1a receptor (Rattus norvegicus) (UniProt P30560); settings: Artery; 240 uM
[7] = target: Vasopressin V1a receptor (Rattus norvegicus) (UniProt P30560); assay: Inhibition expressed as percent change in diastolic blood pressure increased by AVP (30 milliunits / kg, iv) before and after oral administration at 23 uM/kg; assay type: functional, organism-based; settings: Artery
[8] = target: Vasopressin V1a receptor (Rattus norvegicus, UniProt P30560); assay: Ability to displace [3H]- Arginine Vasopressin (AVP) from its specific binding sites in rat liver (V1 receptor)

Sequences of proteins named here, by UniProt entry; tags and fusion partners are left off.
UniProt P30560, whole entry, looked up: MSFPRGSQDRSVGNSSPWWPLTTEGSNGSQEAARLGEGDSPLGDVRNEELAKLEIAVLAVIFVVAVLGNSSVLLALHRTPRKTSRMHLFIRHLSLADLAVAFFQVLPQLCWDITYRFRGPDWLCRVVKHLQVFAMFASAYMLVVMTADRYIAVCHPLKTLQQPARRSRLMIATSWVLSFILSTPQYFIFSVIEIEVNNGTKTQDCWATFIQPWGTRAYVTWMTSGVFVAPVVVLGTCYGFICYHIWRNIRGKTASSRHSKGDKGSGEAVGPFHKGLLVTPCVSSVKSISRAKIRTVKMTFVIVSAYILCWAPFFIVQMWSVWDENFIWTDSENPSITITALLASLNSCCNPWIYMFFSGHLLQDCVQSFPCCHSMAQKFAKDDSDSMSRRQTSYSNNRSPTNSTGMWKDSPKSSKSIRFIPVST

CC(=O)NCCCCCCOc1ccc(C(=O)N2CCC(N3C(=O)CCc4ccccc43)CC2)cc1
ID50 [1]: 10 µmol/kg | inhibition [2]: 72%

CC(=O)NCCCCCCCCOc1ccc(C(=O)N2CCC(N3C(=O)CCc4ccccc43)CC2)cc1
inhibition [3]: inactive

COC(=O)NCCCOc1ccc(C(=O)N2CCC(N3C(=O)CCc4ccccc43)CC2)cc1
ID50 [1]: 8.6 µmol/kg | inhibition [4]: 73%

NCCCCCOc1ccc(C(=O)N2CCC(N3C(=O)CCc4ccccc43)CC2)cc1
inhibition [5]: inactive

O=C(c1ccc(Br)cc1)N1CCC(N2C(=O)CCc3ccccc32)CC1
inhibition [6]: inactive

NCCCCOc1ccc(C(=O)N2CCC(N3C(=O)CCc4ccccc43)CC2)cc1
inhibition [7]: 31%

CC(=O)Oc1ccc(C(=O)N2CCC(N3C(=O)CCc4ccccc43)CC2)cc1
IC50 [8]: 490 nM
